The values that follow come from PubChem BioAssay AID1481 (The Scripps Research Institute Molecular Screening Center, 2009).

Chains of the proteins cited; added tags and fusions are not shown.
UniProt P55072, whole entry: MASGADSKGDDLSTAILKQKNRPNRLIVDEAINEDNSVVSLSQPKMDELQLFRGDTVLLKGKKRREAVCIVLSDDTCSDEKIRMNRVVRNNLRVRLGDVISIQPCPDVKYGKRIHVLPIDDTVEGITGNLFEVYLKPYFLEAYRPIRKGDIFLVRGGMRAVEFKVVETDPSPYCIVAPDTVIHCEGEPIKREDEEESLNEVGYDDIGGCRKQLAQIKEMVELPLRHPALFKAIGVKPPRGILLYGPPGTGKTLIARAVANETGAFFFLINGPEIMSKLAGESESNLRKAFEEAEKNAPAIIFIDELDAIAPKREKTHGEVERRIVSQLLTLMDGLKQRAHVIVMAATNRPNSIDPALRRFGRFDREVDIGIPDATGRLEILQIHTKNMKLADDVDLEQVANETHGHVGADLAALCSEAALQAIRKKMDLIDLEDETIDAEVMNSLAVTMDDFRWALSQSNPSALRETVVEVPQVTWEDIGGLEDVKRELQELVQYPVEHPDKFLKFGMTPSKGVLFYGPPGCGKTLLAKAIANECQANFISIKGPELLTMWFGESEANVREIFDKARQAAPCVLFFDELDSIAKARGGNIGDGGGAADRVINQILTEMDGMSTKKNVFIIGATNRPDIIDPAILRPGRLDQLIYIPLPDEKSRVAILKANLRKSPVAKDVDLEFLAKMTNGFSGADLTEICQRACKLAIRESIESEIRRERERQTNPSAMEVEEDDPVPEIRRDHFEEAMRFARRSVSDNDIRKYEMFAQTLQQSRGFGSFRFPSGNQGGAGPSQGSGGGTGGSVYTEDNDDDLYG

The structures appear in SMILES notation. This is a selection; strong and weak results do not stand in their true shares. Calls of active or inactive are those of the source. Cut-off read from the data, not from the text of the source: active = inhibition above about 15%; inactive = the rest.

The assay has as its target Transitional endoplasmic reticulum ATPase (Homo sapiens) (UniProt P55072). In words: inhibitors of human p97 ATPase, primary screen, biochemical (AID 1481).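 Note: 0% = DMSO vehicle and 100% = wells lacking enzyme.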 Conditions: recombinant p97 ATPase, Kinase-Glo ATP luminescence, 3 h; at 8 µM; stronger effect = higher value. (In general: In Kinase-Glo more light means more ATP remaining.)
Turning to `COc1ccccc1OP(C)(=O)Nc1cccc(Br)c1` (stereo not drawn), the inhibition (in general, the relative decrease from the control value, in per cent) is active: 14.8%.
With `CCOC(=O)c1ccc(NP(C)(=O)Oc2cc(C)cc(C)c2)cc1` (stereo not drawn) the figure was inactive: -3.53%; with `Cc1cc(C)cc(OP(C)(=O)Nc2ccc(C)cc2C)c1` (stereo not drawn), inactive: -3.1%.
In the case of `Cc1ccc(C)c(NP(C)(=O)Oc2ccccc2)c1` (stereo not drawn), the inhibition was inactive: -2.37%.
With `Cc1cc(C)cc(OP(C)(=O)Nc2ccccn2)c1` (stereo not drawn) the figure was inactive: 1.11%; with `CP(=O)(Nc1cccc(Br)c1)Oc1ccccc1` (stereo not drawn), inactive: 0.03%.
With `O=C(O)c1cccc(Nc2c([N+](=O)[O-])cc([N+](=O)[O-])cc2[N+](=O)[O-])c1` the figure was inactive: 6.75%; with `CC1=NCCc2c1[nH]c1ccccc21.O=[N+]([O-])c1cc([N+](=O)[O-])c(O)c([N+](=O)[O-])c1`, inactive: -5.56%; with `CCOC(=O)C(CC)C1=NC(C)(C)Cc2ccccc21.O=[N+]([O-])c1cc([N+](=O)[O-])c(O)c([N+](=O)[O-])c1` (stereo not drawn), inactive: 0.44%.
`O=[N+]([O-])c1cc([N+](=O)[O-])c(Nc2nnnn2CCO)c([N+](=O)[O-])c1`: the inhibition is inactive: 6.33%.
Under `COc1ccccc1OP(C)(=O)Nc1c(C)cccc1C` (stereo not drawn) stands inactive: -3.46%; under `CN1CCCCC1COC(=O)C1(O)c2ccccc2CCc2ccccc21` (stereo not drawn), inactive: 3.65%.
On to `CCCOc1ccc(NP(C)(=O)Oc2ccc(Cl)cc2)cc1` (stereo not drawn), for which the inhibition was inactive: -0.5%.
Take `CP(=O)(Nc1ccc(SC(F)(F)F)cc1)Oc1ccccc1` (stereo not drawn): the inhibition is inactive: -1.4%.
Turning to `O=[N+]([O-])c1cc([N+](=O)[O-])c(-n2nnc3ccccc32)c([N+](=O)[O-])c1`, the inhibition is inactive: 0.83%.
With `Cc1nc2ccc3ccccc3c2s1.O=[N+]([O-])c1cc([N+](=O)[O-])c(O)c([N+](=O)[O-])c1` the figure was inactive: 10.2%; with `CP(=O)(Oc1ccccc1)OC(c1ccccc1)C(F)(F)F` (stereo not drawn), inactive: -4.01%.
Under `Cc1cccc(C)c1OP(C)(=O)Nc1ccc(SC(F)(F)F)cc1` (stereo not drawn) stands inactive: 3.8%; under `CP(=O)(Nc1ccc(SC(F)(F)F)cc1)Oc1ccc(Cl)cc1` (stereo not drawn), inactive: -7.79%.
Turning to `Cc1cc(C)cc(OP(C)(=O)Nc2ccc(SC(F)(F)F)cc2)c1` (stereo not drawn), the inhibition was inactive: -8.16%.
With `CP(=O)(NC(=O)Nc1ccccc1)Oc1ccccc1` (stereo not drawn) the figure was inactive: -2.02%; with `CCc1ccc(OP(C)(=O)N2CCN(c3ccc([N+](=O)[O-])cc3)CC2)cc1` (stereo not drawn), inactive: -9.84%.
With `CCOC(=O)c1ccc(NP(C)(=O)Oc2ccc(OC)cc2)cc1` (stereo not drawn) the figure was inactive: -0.29%.
As for `CCOP(C)(=S)SCC(=O)NC(C)C(=O)O` (stereo not drawn), the inhibition is inactive: -7.21%.
Under `CP(=O)(Nc1ccccn1)Oc1ccc(Cl)cc1` (stereo not drawn) stands inactive: 0.85%; under `CP(=S)(Nn1cnnc1)Oc1ccccc1` (stereo not drawn), inactive: -0.61%.
Turning to `CP(=O)(Nc1ccccc1Br)Oc1ccccc1` (stereo not drawn), the inhibition was inactive: -5.69%.
With `COc1ccccc1OP(C)(=O)Nc1ccccc1` (stereo not drawn) the figure was inactive: 0.75%; with `O=[N+]([O-])c1ccc2c(c1)C=Nc1ccccc1O2`, inactive: 1.21%; with `Cc1cccc(C)c1OP(C)(N)=O` (stereo not drawn), inactive: 2.73%.
Under `CC(C)(C)c1ccc(OP(C)(=O)Nc2ccc(SC(F)(F)F)cc2)cc1` (stereo not drawn) stands inactive: 3.23%; under `Cc1ccc(NP(C)(=O)Oc2ccccc2)c(C)c1` (stereo not drawn), inactive: 1.33%.
With `COc1ccccc1OP(C)(=O)Nc1ccc(C)cc1` (stereo not drawn), the inhibition was inactive: -2.41%.
With `CCOC(=O)c1ccc(NP(C)(=O)Oc2ccccc2)cc1` (stereo not drawn) the figure was inactive: 0.77%; with `Cc1cc(C)cc(OP(C)(N)=O)c1` (stereo not drawn), inactive: -5.21%.
With `COc1ccc(OP(C)(=O)Nc2cccc(F)c2)cc1` (stereo not drawn) the figure was inactive: 1.06%; with `COc1ccccc1OP(C)(=O)Nc1cc(Cl)ccc1C` (stereo not drawn), inactive: -5.78%; with `CCN(CC)CCCOC(=O)C(O)(c1ccccc1)c1ccccc1`, inactive: 7.41%.
With `COc1ccccc1OP(C)(=O)Nc1ccc(Br)cc1` (stereo not drawn) the figure was inactive: -2.8%.
On to `COc1ccc(OP(C)(=O)Nc2ccccn2)cc1` (stereo not drawn), for which the inhibition is inactive: -0.86%.
With `CN(C)CCOC(=O)C(O)(c1ccccc1)C1CCCC1` (stereo not drawn) the figure was inactive: -0.95%; with `Cc1c(NP(C)(=O)Oc2ccc(C(C)C)cc2)c(=O)n(-c2ccccc2)n1C` (stereo not drawn), inactive: 0.29%.
With `O=[N+]([O-])c1cc([N+](=O)[O-])c(Nc2ccccn2)c([N+](=O)[O-])c1` the figure was inactive: 4.22%; with `COc1ccccc1OP(C)(=O)Nc1ccc(C)cc1C` (stereo not drawn), inactive: -6.28%.
In the case of `CP(=O)(Nc1ccccn1)Oc1ccccc1` (stereo not drawn), the inhibition was inactive: 1.13%.
Under `CCc1ccc(OP(C)(=O)O)cc1` stands inactive: -2.21%; under `Cc1cc(C)cc(OP(C)(=O)Nc2cccc(C(F)(F)F)c2)c1` (stereo not drawn), inactive: 0.38%; under `COc1ccccc1OP(C)(=O)Nc1ccc(C)c(C)c1` (stereo not drawn), inactive: 0.07%.
`COc1ccc(OP(C)(=O)Nc2ccccc2Br)cc1` (stereo not drawn): the inhibition was inactive: 1.26%.
As for `Cc1nc2ccc3ccccc3c2o1.O=[N+]([O-])c1cc([N+](=O)[O-])c(O)c([N+](=O)[O-])c1`, the inhibition is inactive: 5.63%.
On to `CP(=O)(Nc1ccc(Cl)cc1Cl)Oc1ccccc1` (stereo not drawn), for which the inhibition was inactive: -1.27%.
Under `CP(=O)(OCCOc1ccccc1)OCCOc1ccccc1` stands inactive: -4.36%; under `CCOC(=O)c1ccc(NP(C)(=O)Oc2ccc(Cl)cc2)cc1` (stereo not drawn), inactive: 4.19%; under `CP(=O)(OC12CC3CC(CC(C3)C1)C2)OC12CC3CC(CC(C3)C1)C2`, inactive: -6.73%.
With `COc1ccc(OP(C)(=O)Nc2ccc(Br)cc2)cc1` (stereo not drawn) the figure was inactive: -0.97%; with `CCN(CC)CC(O)COC(=O)C(O)(c1ccccc1)C1CCCCC1` (stereo not drawn), inactive: -0.2%; with `O=C(OCCCN1CCCC1)C(O)(c1ccccc1)C1CCCCC1` (stereo not drawn), inactive: 4.86%.
Under `COc1ccccc1OP(C)(=O)Nc1c(C)n(C)n(-c2ccccc2)c1=O` (stereo not drawn) stands inactive: -5.25%; under `CCc1ccc(OP(C)(=O)Nc2cccnc2)cc1` (stereo not drawn), inactive: 3.79%.
On to `CP(=O)(Oc1ccccc1)N1CCOC1=O` (stereo not drawn), for which the inhibition was inactive: -4.95%.
As to `COc1ccccc1OP(C)(=O)Nc1ccccc1Br` (stereo not drawn), the inhibition is inactive: 2.61%.
With `CC(C)(C)c1ccc(OP(C)(=O)O)cc1` the figure was inactive: 3.85%.
Regarding `CP(=O)(Nc1ccc(Cl)cc1)Oc1ccc(F)cc1` (stereo not drawn), the inhibition is inactive: -5.26%.
